Test results from article PMC4125821, “Crystal structures of the S6K1 kinase domain in complexes with inhibitors” (Journal of Structural and Functional Genomics, 2014).

Chains of the proteins cited; added tags and fusions are not shown. Residues count along the entry.
UniProt P23443, 1-421 T412E: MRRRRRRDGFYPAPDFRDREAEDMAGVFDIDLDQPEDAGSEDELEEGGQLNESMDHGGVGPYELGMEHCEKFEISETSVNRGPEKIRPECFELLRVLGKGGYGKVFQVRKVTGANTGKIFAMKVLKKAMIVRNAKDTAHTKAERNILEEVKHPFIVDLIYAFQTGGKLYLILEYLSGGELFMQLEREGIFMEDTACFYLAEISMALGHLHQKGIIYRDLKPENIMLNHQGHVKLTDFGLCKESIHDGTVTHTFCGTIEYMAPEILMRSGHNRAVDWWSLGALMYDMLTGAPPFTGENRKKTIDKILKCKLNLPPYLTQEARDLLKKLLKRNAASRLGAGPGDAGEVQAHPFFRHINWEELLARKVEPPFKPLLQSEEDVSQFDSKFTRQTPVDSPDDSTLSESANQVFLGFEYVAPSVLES

Biological target: T1, human S6K1 (RPS6KB1) protein, residues 1–421 with the T412E mutation (Homo sapiens, UniProt P23443, T412E)
T1 construct: the human S6K1 (RPS6KB1) protein, residues 1–421 with the T412E mutation; purchased Carna Biosciences (Kobe, Japan)
Assay: Kinase mobility shift assay
Format: biochemical
Details: S6K1 residues 1–421, T412E mutation; 2 nM enzyme; 30 min pre-incubation; ATP 0.5 mM; FL-Peptide 26 1.5 μM
Description: The mobility shift assay was performed as reported. Briefly, the reaction buffer consisted of 50 mM Hepes (pH 7.4), containing 10 mM MgCl2, 0.01 %(w/v) Brij-35, 1 mM dithiothreitol (DTT), 1 %(v/v) Protease Inhibitor Cocktail Set V [Calbiochem (EMD Millipore), Darmstadt, Germany], 1 %(v/v) Phosphatase Inhibitor Cocktail Set III [Calbiochem (EMD Millipore), Darmstadt, Germany], and 0.6 %(v/v) DMSO. For the kinase assay, the human S6K1 (RPS6KB1) protein, residues 1–421 with the T412E mutation, was purchased from Carna Biosciences (Kobe, Japan). […] The S6K1 protein (final concentration of 2 nM) in the reaction buffer was first incubated with different concentrations of the compounds (0–10 μM) for 30 min. After this pre-incubation step, a FAM-labeled substrate peptide, FL-Peptide 26 (5-FAM-ARKRERTYSFGHHA-COOH) (PerkinElmer, Waltham, MA), and ATP were added at final concentrations of 1.5 μM and 0.5 mM, respectively. The kinase reactions were performed at room temperature, and stopped by the addition of termination buffer [50 mM Hepes buffer (pH 7.4), containing 140 mM EDTA and 0.01 %(w/v) Brij-35]. The phosphorylated and unphosphorylated peptides thus obtained were separated and quantified with a Lab-Chip EZ Reader II (PerkinElmer, MA). Data were fitted using a sigmoidal dose–response regression algorithm in GraphPad Prism (GraphPad Software, La Jolla, CA).

`CCc1cncnc1N1CCN(Cc2nc3cc(C(F)(F)F)ccc3[nH]2)CC1` [PF-4708671, reference compound] showed an IC50 of 15 nM.
